One may read the Ki as a dissociation constant, usually derived from enzyme kinetics or from competition with a known ligand.

Amino acid sequences for entries named in this document (tags omitted). Residues count along the entry.
UniProt P27958, 1027-1657: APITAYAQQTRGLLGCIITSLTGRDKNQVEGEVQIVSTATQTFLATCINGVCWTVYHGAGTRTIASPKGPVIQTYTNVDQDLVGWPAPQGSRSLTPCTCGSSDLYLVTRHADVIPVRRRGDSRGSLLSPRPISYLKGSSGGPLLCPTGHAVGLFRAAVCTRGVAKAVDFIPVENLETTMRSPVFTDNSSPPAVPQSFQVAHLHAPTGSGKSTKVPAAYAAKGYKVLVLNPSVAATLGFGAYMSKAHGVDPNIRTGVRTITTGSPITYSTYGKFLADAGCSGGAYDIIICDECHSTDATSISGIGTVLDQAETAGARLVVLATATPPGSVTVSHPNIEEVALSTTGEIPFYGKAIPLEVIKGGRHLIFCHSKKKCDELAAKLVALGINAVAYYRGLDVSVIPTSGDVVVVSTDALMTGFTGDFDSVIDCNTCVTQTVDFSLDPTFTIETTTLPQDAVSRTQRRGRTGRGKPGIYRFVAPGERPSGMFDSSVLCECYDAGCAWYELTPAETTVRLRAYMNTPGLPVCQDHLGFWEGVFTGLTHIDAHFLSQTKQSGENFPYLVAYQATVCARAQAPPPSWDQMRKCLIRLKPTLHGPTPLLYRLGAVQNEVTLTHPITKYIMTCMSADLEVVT
UniProt P27958, 1658-1711: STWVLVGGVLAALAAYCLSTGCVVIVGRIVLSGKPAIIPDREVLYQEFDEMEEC

The first assay deals with Recombinant heterodimeric HCV NS3/NS4A protease (strain 1a) (Hepatitis C virus genotype 1a, UniProt P27958). The assay is described as follows: Spectrophotometric assay for HCV protease inhibitory activity. The class given is biochemical. Conditions: Table 1, range.
`CN(C)S(=O)(=O)N(C)C[C@@H](NC(=O)N[C@H](C(=O)N1C[C@H]2[C@@H]([C@H]1C(=O)NC(CC1CC1)C(=O)C(N)=O)C2(C)C)C(C)(C)C)C1CCCCC1` (stereo partly drawn) [Compound 10027]: the Ki is at most 75 nM.

Take `C=CCNC(=O)C(=O)C(CCC)NC(=O)[C@@H]1[C@@H]2[C@H](CN1C(=O)[C@@H](NC(=O)N[C@H](CN(C)S(=O)(=O)N(C)C)C(C)(C)C)C1(C)CCCCC1)C2(C)C` (stereo partly drawn) [Compound 10060]: the Ki is at most 75 nM.

Turning to `C#CCCC(NC(=O)[C@@H]1[C@@H]2[C@H](CN1C(=O)[C@@H](NC(=O)N[C@H](CN(C)S(=O)(=O)N(C)C(=O)OCc1ccccc1)C(C)(C)C)C1CCCCC1)C2(C)C)C(=O)C(=O)NCC=C` (stereo partly drawn) [Compound 10083], the Ki was at most 75 nM.

With `C=CCNC(=O)C(=O)C(CC1CC1)NC(=O)[C@@H]1[C@@H]2[C@H](CN1C(=O)[C@@H](NC(=O)N[C@H](CN(C)S(=O)(=O)N(C)C1CC1)C(C)(C)C)C(C)(C)C)C2(C)C` (stereo partly drawn) [Compound 10093], the inhibition constant Ki was at most 75 nM.

`CN(C[C@@H](NC(=O)N[C@H](C(=O)N1C[C@H]2[C@@H]([C@H]1C(=O)NC(CC1CCC1)C(=O)C(N)=O)C2(C)C)C(C)(C)C)C(C)(C)C)S(=O)(=O)N1CCCC1` (stereo partly drawn) [Compound 10097]: the Ki is at most 75 nM.

Regarding `C=CCNC(=O)C(=O)C(CC1CC1)NC(=O)[C@@H]1[C@@H]2[C@H](CN1C(=O)[C@@H](NC(=O)N[C@H](CN(C)S(=O)(=O)N(C)C)C(C)(C)C)C1CCCCC1)C2(C)C` (stereo partly drawn) [Compound 10073], the Ki was at most 75 nM.

Take `C=CCNC(=O)C(=O)C(CC1CCC1)NC(=O)[C@@H]1[C@@H]2[C@H](CN1C(=O)[C@@H](NC(=O)N[C@H](CN(C)S(=O)(=O)N(C)C(=O)OCc1ccccc1)C(C)(C)C)C1CCCCC1)C2(C)C` (stereo partly drawn) [Compound 10076]: the Ki was at most 75 nM.

For `CCNC(=O)C(=O)C(CC1CC1)NC(=O)[C@@H]1[C@@H]2[C@H](CN1C(=O)[C@@H](NC(=O)N[C@H](CN(C)S(=O)(=O)N(C)C)C(C)(C)C)C(C)(C)C)C2(C)C` (stereo partly drawn) [Compound 10072], the Ki was at most 75 nM.

As for `C=CCNC(=O)C(=O)[C@@H](CCC)NC(=O)[C@@H]1[C@@H]2[C@H](CN1C(=O)[C@@H](NC(=O)N[C@H](CN(C)S(=O)(=O)N(C)C)C1CCCCC1)C1CCCCC1)C2(C)C` [Compound 10025], the Ki was at most 75 nM.

The assay is the same for the next values; noted with them: Table 2, range.
Consider `CN(C[C@@H](NC(=O)N[C@H](C(=O)N1C[C@H]2[C@@H]([C@H]1C(=O)NC(CC1CCC1)C(=O)C(N)=O)C2(C)C)C(C)(C)C)C1CCCCC1)S(=O)(=O)c1cccs1` (stereo partly drawn) [Compound 11161], for which the Ki is at most 75 nM.

For the compound `C=CCNC(=O)C(=O)C(CCC)NC(=O)[C@@H]1[C@@H]2[C@H](CN1C(=O)[C@@H](NC(=O)N[C@H](CN(C)S(=O)(=O)c1ccccn1)C(C)(C)C)C1CCCCC1)C2(C)C` (stereo partly drawn) [Compound 11276], the Ki was at most 75 nM.

For the compound `CN(C[C@@H](NC(=O)N[C@H](C(=O)N1C[C@@H]2OC(C)(C)C[C@@H]2[C@H]1C(=O)NC(CC1CCC1)C(=O)C(N)=O)C1CCCCC1)C(C)(C)C)S(C)(=O)=O` (stereo partly drawn) [Compound 11057], the Ki was at most 75 nM.

On to `C=CCNC(=O)C(=O)C(CCC(F)(F)F)NC(=O)[C@@H]1C[C@@H](Cl)CN1C(=O)[C@@H](NC(=O)N[C@H](CN(C)S(C)(=O)=O)C(C)(C)C)C1CCCCC1` (stereo partly drawn) [Compound 11164], for which the Ki is at most 75 nM.

On to `C=CCNC(=O)C(=O)C(CC1CCC1)NC(=O)[C@@H]1[C@@H]2[C@H](CN1C(=O)[C@@H](NC(=O)N[C@H](CN(CC)S(=O)(=O)c1cccs1)C(C)(C)C)C(C)(C)C)C2(C)C` (stereo partly drawn) [Compound 11220], for which the Ki was at most 75 nM.

In the case of `C=CCNC(=O)C(=O)C(CCC)NC(=O)[C@@H]1[C@@H]2[C@H](CN1C(=O)[C@@H](NC(=O)N[C@H](CN(C)S(C)(=O)=O)C(C)C)C(C)(C)C)C2(C)C` (stereo partly drawn) [Compound 11052], the Ki is at most 75 nM.

For `CN(C[C@@H](NC(=O)N[C@H](C(=O)N1C[C@H]2[C@@H]([C@H]1C(=O)NC(CC1CC1)C(=O)C(N)=O)C2(C)C)C1(C)CCCCC1)C(C)(C)C)S(=O)(=O)c1cccs1` (stereo partly drawn) [Compound 11138], the Ki is at most 75 nM.

`CCCCC(NC(=O)[C@@H]1[C@@H]2[C@H](CN1C(=O)[C@@H](NC(=O)N[C@H](CN(C)S(C)(=O)=O)C(C)(C)C)C1Cc3ccccc3C1)C2(C)C)C(=O)C(=O)NCCC` (stereo partly drawn) [Compound 11271]: the Ki is at most 75 nM.

Consider `C=CCNC(=O)C(=O)C(CC1CC1)NC(=O)[C@@H]1[C@@H]2[C@H](CN1C(=O)[C@@H](NC(=O)N[C@H](CN(C)S(=O)(=O)c1ccccc1Cl)C(C)(C)C)C(C)(C)C)C2(C)C` (stereo partly drawn) [Compound 11350], for which the Ki was at most 75 nM.

In the case of `CN(C[C@@H](NC(=O)N[C@H](C(=O)N1C[C@H]2[C@@H]([C@H]1C(=O)NC(CC1CC1)C(=O)C(N)=O)C2(C)C)C(C)(C)C)C(C)(C)C)S(C)(=O)=O` (stereo partly drawn) [Compound 11117], the Ki was at most 75 nM.

`C=CCNC(=O)C(=O)C(CCC)NC(=O)[C@@H]1[C@@H]2[C@H](CN1C(=O)[C@@H](NC(=O)N[C@H](CN(C)S(=O)(=O)c1cccs1)CC(C)(C)C)C(C)(C)C)C2(C)C` (stereo partly drawn) [Compound 11099]: the Ki lay in the range of 75 to 250 nM.

`CCCCC(NC(=O)[C@@H]1[C@@H]2[C@H](CN1C(=O)[C@@H](NC(=O)N[C@H](CN(C)S(=O)(=O)c1ccccn1)C(C)(C)C)C1Cc3ccccc3C1)C2(C)C)C(=O)C(=O)NCC` (stereo partly drawn) [Compound 11377]: the Ki was at most 75 nM.

As to `C=CCNC(=O)C(=O)C(CC1CC1)NC(=O)[C@@H]1[C@@H]2[C@H](CN1C(=O)[C@@H](NC(=O)N[C@H](CN(C)S(C)(=O)=O)C(C)(C)C)C1(C)CCCCC1)C2(C)C` (stereo partly drawn) [Compound 11253], the Ki was at most 75 nM.

Consider `C=CCNC(=O)C(=O)C(CCCC)NC(=O)[C@@H]1[C@@H]2[C@H](CN1C(=O)[C@@H](NC(=O)N[C@H](CN(C)S(=O)(=O)CC)C(C)(C)C)C(C)(C)C)C2(C)C` (stereo partly drawn) [Compound 11104], for which the Ki was at most 75 nM.

In the case of `C=CCNC(=O)C(=O)C(CC1CCC1)NC(=O)[C@@H]1[C@@H]2[C@H](CN1C(=O)[C@@H](NC(=O)N[C@H](CN(C)S(=O)(=O)c1ccccn1)C(C)(C)C)C1Cc3ccccc3C1)C2(C)C` (stereo partly drawn) [Compound 11373], the Ki was at most 75 nM.

Consider `C#CCCC(NC(=O)[C@@H]1[C@@H]2[C@H](CN1C(=O)[C@@H](NC(=O)N[C@H]1CCCC[C@H]1N(C)S(C)(=O)=O)C(C)(C)C)C2(C)C)C(=O)C(=O)NCC=C` (stereo partly drawn) [Compound 11284], for which the Ki was in the range of 75 to 250 nM.

Take `CCCCC(NC(=O)[C@@H]1[C@@H]2[C@H](CN1C(=O)[C@@H](NC(=O)N[C@H](CN(C)S(=O)(=O)c1cccs1)C(C)(C)C)C(C)(C)C)C2(C)C)C(=O)C(=O)NCC` (stereo partly drawn) [Compound 11105]: the Ki was at most 75 nM.

With `C=CCNC(=O)C(=O)C(CC1CC1)NC(=O)[C@@H]1[C@@H]2[C@H](CN1C(=O)[C@@H](NC(=O)N[C@H](CN(C)S(=O)(=O)c1cccs1)C(C)(C)C)C1(C)CCCCC1)C2(C)C` (stereo partly drawn) [Compound 11140], the Ki was at most 75 nM.

Take `C=CCNC(=O)C(=O)C(CC1CC1)NC(=O)[C@@H]1[C@H]2CC(C)(C)O[C@H]2CN1C(=O)[C@@H](NC(=O)N[C@H](CN(C)S(C)(=O)=O)C(C)(C)C)C1CCCCC1` (stereo partly drawn) [Compound 11040]: the Ki was 75 to 250 nM.

As for `C=CCNC(=O)C(=O)C(CCCC)NC(=O)[C@@H]1[C@@H]2[C@H](CN1C(=O)[C@@H](NC(=O)N[C@H](CN(C)S(=O)(=O)c1cccs1)C(C)(C)C)C1Cc3ccccc3C1)C2(C)C` (stereo partly drawn) [Compound 11177], the Ki was at most 75 nM.

Turning to `CN(C[C@H](CC(C)(C)C)NC(=O)N[C@H](C(=O)N1C[C@H]2[C@@H]([C@H]1C(=O)NC(CC1CC1)C(=O)C(N)=O)C2(C)C)C(C)(C)C)S(=O)(=O)c1ccccc1` (stereo partly drawn) [Compound 11129], the Ki is at most 75 nM.

On to `C=CCNC(=O)C(=O)C(CCCC)NC(=O)[C@@H]1[C@@H]2[C@H](CN1C(=O)[C@@H](NC(=O)N[C@H](CN(C)S(=O)(=O)c1cccc(Cl)c1)C(C)(C)C)C(C)(C)C)C2(C)C` (stereo partly drawn) [Compound 11349], for which the Ki was at most 75 nM.

`C#CCCC(NC(=O)[C@@H]1[C@@H]2[C@H](CN1C(=O)[C@@H](NC(=O)N[C@H](CN(C)S(=O)(=O)c1ccccn1)C(C)(C)C)C(C)(C)C)C2(C)C)C(=O)C(=O)NCC=C` (stereo partly drawn) [Compound 11002]: the Ki was at most 75 nM.

With `C=CCNC(=O)C(=O)C(CCC)NC(=O)[C@@H]1[C@@H]2[C@H](CN1C(=O)[C@@H](NC(=O)N[C@H](CN(C)S(=O)(=O)C(C)(C)C)C(C)(C)C)C(C)(C)C)C2(C)C` (stereo partly drawn) [Compound 11205], the Ki was at most 75 nM.

With `C#CCCC(NC(=O)[C@@H]1[C@@H]2[C@H](CN1C(=O)[C@@H](NC(=O)N[C@H](CN(C)S(=O)(=O)c1cccs1)C(C)(C)C)C(C)(C)C)C2(C)C)C(=O)C(N)=O` (stereo partly drawn) [Compound 11207], the Ki is at most 75 nM.

The same assay, now with this note: Table 3, range.
For the compound `C=CCNC(=O)C(=O)C(CC1CC1)NC(=O)[C@@H]1[C@@H]2[C@H](CN1C(=O)[C@@H](NC(=O)NC1(CNS(C)(=O)=O)CCCCC1)C(C)(C)C)C2(C)C` (stereo partly drawn) [Compound 12002], the Ki was at most 75 nM.

Take `CC(C)[C@@H](CNS(=O)(=O)c1ccccc1)NC(=O)N[C@H](C(=O)N1C[C@H]2[C@@H]([C@H]1C(=O)NC(CC1CC1)C(=O)C(N)=O)C2(C)C)C(C)(C)C` (stereo partly drawn) [Compound 12003]: the Ki was at most 75 nM.

The same assay, now with this note: Table 4, range.
Turning to `CCCNC(=O)C(=O)C(CCC)NC(=O)[C@@H]1[C@@H]2[C@H](CN1C(=O)[C@@H](NC(=O)N[C@H](CNC(=O)c1ccccc1)C(C)C)C(C)(C)C)C2(C)C` (stereo partly drawn) [Compound 13003], the Ki was 75 to 250 nM.

Still in this assay, the particulars now being: Table 5, range.
For `CC(C)OC(=O)N1CCCC(NC(=O)N[C@H](C(=O)N2C[C@H]3[C@@H]([C@H]2C(=O)NC(CC2CCC2)C(=O)C(N)=O)C3(C)C)C(C)(C)C)C1` (stereo partly drawn) [Compound 14027], the Ki lay in the range of 75 to 250 nM.

The same assay, now with this note: Table 5A, range.
With `C=CCNC(=O)C(=O)C(CCCC)NC(=O)[C@@H]1[C@@H]2[C@H](CN1C(=O)[C@@H](NC(=O)N[C@H](CN(C)S(=O)(=O)CC)C(C)(C)C)C1(C)Cc3ccccc3C1)C2(C)C` (stereo partly drawn) [Compound 11425], the Ki is at most 75 nM.

With `CCCCC(NC(=O)[C@@H]1[C@@H]2[C@H](CN1C(=O)[C@@H](NC(=O)N[C@H](CN(C)S(=O)(=O)CC)C(C)(C)C)C1Cc3ccccc3C1)C2(C)C)C(=O)C(=O)NCc1nccs1` (stereo partly drawn) [Compound 11418], the Ki was at most 75 nM.

The assay is the same for the next values; noted with them: Table 6.
For `CCCCC(NC(=O)[C@@H]1[C@@H]2[C@H](CN1C(=O)[C@@H](NC(=O)N[C@H](CN(C)S(=O)(=O)CC)C(C)(C)C)C1Cc3ccccc3C1)C2(C)C)C(=O)C(=O)NCc1nccs1` (stereo partly drawn) [Compound 11418], the Ki was determined as 7 nM.

For the compound `C=CCNC(=O)C(=O)C(CCCC)NC(=O)[C@@H]1[C@@H]2[C@H](CN1C(=O)[C@@H](NC(=O)N[C@H](CN(C)S(=O)(=O)CC)C(C)(C)C)C1Cc3ccccc3C1)C2(C)C` (stereo partly drawn) [drawing 62], the Ki is 5.8 nM.

For the origin of these results see patent publication US7759499B2, “Compounds as inhibitors of hepatitis C virus NS3 serine protease” (Schering Corporation, priority 2004, dated 2010).
